The numbers were not newly measured in PubChem BioAssay AID1811 (Shanghai Institute of Organic Chemistry, 2009), which cites them from elsewhere.

The test system of the series is 3-phosphoinositide dependent protein kinase-1. Put plainly: PubChem AID 1811. The following applies: PDB complex binding affinities from literature.

This is one part of the list. Active and inactive are the calls of the source. Unless stated, no cut-off for active and inactive is given here.

With `O=P(O)(O)OC1[C@H](O)[C@H](OP(=O)(O)O)C(OP(=O)(O)O)[C@H](OP(=O)(O)O)[C@H]1O` (stereo partly specified), the molecule was called active.
